This assay has as its target Amyloid-beta precursor protein (Homo sapiens, UniProt P05067). The experiment in a line: Displacement of [125I-N-Methyl-4-(4-bromoanilino)phthalimide from beta-amyloid plaques isolated from Alzheimer's disease patient brain. (In general: Loss of bound radioactivity is the signal in a displacement assay; it reports binding, not function.)

The chains behind the UniProt entries cited, without tags or fusion partners.
UniProt P05067, whole entry: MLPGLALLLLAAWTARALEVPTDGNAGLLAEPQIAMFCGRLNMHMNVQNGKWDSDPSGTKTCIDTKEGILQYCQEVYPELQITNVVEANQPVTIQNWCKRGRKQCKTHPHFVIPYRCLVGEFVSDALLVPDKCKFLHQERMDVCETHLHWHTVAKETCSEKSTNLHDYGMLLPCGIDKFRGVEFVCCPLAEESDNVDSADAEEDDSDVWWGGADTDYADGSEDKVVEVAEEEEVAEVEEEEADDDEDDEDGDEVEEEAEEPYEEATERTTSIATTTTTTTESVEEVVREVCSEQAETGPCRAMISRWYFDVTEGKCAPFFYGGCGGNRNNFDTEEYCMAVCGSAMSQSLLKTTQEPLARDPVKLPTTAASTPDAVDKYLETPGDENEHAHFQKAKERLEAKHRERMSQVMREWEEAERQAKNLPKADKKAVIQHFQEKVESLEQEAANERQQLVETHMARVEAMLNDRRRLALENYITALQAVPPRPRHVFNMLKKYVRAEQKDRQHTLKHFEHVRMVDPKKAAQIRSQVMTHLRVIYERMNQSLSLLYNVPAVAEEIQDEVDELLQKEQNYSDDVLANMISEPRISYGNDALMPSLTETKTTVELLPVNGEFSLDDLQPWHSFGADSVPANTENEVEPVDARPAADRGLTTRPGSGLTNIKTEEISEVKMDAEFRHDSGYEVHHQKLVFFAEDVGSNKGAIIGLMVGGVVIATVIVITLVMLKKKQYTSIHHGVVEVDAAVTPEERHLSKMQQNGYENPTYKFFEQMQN

Here are results for one molecule from ChEMBL document CHEMBL1159057, “Novel anilinophthalimide derivatives as potential probes for beta-amyloid plaque in the brain” (Bioorg Med Chem, 2010).

Bounds are passed on as bounds.

One may read the Ki as a measure of affinity in units of concentration, obtained from inhibition or displacement. As for `Cc1ccc2c(c1)sc(-c1ccc(N(C)C)cc1)[n+]2C` [THIOFLAVIN T], the inhibitory constant (Ki) is > 1 µM.
